This passage reports Therapeutical index results from US4939142A, “Substituted styrene derivatives” (priority 1989, dated 1990).

The series concerns pentetrazole spasm. The series is described as follows: Inhibition of pentetrazol spasm on mice. The conditions noted are these: Table V, LD50/ED50.

`CN1C(=O)OC(C)(C)C1=O` [Trimethadion, reference compound] yielded a Therapeutical index of 4.3.
